The values below come from patent publication US20030171347A1, “Sigma receptor antagonists having anti-cocaine properties and uses thereof” (priority 1998, published 2003).

SMILES strings stand for the structures.

The target in the experiment is opiate receptors (Rattus norvegicus, UniProt P34975). Nature of the experiment: Opiate receptor competition binding. Conditions: read-out: Opiate; rat brain homogenates, [3H]etorphine or [3H]bremazocine.

In the case of `CN1CCN(CCc2ccc(Cl)c(Cl)c2)CC1` [BD1063], the IC50 is above 10 µM.
